System: human NSCLC A549 cells
Assay: MTS cytotoxicity of neutron-activated nanoparticles and free Pt drugs (Example 2)
Format: cell-based
Settings: 24 h

oxaliplatin
synergy with the radioactive Ho: act synergistically
